Our source for the IC50 values is ChEMBL document CHEMBL1128809, “Novel PKC inhibitory analogs of balanol with replacement of the ester functionality” (Bioorg Med Chem Lett, 1995).

In the assay the target is T1, Protein kinase C epsilon type (Homo sapiens, UniProt Q02156).
T1 sequence (Q02156 whole entry): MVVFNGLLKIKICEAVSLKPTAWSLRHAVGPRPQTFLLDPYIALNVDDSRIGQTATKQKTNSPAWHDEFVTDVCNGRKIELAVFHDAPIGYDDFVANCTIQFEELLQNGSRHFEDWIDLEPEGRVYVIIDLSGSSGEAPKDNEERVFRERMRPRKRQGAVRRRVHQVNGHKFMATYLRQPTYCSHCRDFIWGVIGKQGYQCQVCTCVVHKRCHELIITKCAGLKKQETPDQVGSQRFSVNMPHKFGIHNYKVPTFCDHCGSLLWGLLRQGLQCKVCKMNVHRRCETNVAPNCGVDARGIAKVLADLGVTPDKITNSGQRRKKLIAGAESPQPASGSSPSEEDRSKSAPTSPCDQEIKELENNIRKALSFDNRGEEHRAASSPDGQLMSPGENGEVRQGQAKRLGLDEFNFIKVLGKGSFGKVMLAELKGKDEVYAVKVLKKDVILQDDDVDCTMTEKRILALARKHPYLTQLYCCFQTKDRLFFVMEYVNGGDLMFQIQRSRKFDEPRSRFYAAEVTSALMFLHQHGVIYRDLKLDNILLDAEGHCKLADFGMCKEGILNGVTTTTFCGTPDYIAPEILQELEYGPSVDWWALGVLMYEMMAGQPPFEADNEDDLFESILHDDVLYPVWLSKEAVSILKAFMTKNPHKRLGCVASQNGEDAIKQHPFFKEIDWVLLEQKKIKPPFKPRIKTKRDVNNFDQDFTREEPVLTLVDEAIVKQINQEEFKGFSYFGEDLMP
The experiment in a line: Inhibition of Protein kinase C epsilon.

For the compound `O=C(N[C@@H]1CNCCC[C@H]1OC(=O)c1cc(O)c(C(=O)c2c(O)cccc2C(=O)O)c(O)c1)c1ccc(O)cc1` [BALANOL], the IC50 (usually the concentration that inhibits the measured activity by half) turned out to be 20 nM.

In turn, `O=C(N[C@@H]1CNCCC[C@H]1OC(=O)c1cc(O)c(C(=O)c2c(O)cccc2C(=O)O)c(O)c1)c1ccc(O)cc1` (racemic) [BALANOL] came in with an IC50 of 38 nM.
